From patent EP3494998A1, “GLYCOSYLATED PSMA INHIBITORS FOR IMAGING AND ENDORADIOTHERAPY” (Technische Universität München, priority 2017, dated 2019)

Amino acid sequences for entries named in this document (tags omitted). Residues count along the entry.
UniProt Q04609, whole entry: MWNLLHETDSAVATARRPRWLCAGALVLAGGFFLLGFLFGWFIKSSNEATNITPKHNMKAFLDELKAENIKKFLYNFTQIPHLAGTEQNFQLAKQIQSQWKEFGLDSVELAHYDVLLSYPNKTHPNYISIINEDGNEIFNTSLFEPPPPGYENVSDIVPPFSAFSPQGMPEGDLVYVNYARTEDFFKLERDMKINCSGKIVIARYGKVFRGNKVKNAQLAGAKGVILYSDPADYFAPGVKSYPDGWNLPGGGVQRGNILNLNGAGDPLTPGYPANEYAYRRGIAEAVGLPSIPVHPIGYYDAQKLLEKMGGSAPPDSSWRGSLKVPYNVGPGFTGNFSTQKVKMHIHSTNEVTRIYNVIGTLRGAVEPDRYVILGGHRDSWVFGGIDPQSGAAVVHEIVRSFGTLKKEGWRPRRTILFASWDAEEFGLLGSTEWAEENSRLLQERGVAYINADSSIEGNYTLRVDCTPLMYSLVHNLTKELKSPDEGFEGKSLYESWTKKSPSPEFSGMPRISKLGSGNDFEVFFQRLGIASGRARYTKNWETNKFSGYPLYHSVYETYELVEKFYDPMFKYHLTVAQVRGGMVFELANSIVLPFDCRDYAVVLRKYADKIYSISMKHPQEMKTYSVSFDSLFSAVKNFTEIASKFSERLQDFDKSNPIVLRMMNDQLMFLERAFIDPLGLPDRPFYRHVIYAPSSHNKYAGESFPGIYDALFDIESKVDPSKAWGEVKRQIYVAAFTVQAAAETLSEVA
UniProt P02768, 25-609: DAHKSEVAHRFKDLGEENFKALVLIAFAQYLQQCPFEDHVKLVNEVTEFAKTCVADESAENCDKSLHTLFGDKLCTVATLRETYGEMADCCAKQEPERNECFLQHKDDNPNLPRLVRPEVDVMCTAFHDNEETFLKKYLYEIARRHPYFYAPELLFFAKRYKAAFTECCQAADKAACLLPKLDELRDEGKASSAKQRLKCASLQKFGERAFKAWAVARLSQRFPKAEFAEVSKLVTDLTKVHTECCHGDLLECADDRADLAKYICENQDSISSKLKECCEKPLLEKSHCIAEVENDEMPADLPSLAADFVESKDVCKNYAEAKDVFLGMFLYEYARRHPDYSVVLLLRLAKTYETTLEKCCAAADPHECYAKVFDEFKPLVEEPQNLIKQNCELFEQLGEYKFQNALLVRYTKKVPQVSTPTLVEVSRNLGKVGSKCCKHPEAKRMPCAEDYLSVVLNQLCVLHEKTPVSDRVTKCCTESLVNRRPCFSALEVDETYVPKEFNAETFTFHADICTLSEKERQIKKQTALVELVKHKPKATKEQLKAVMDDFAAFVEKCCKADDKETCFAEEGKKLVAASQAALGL

Assays:
PSMA = target: T1, PSMA (Homo sapiens, UniProt Q04609); assay: competitive binding assay (IC50) on LNCaP cells with ([125I]I-BA)KuE as radioligand; conditions: LNCaP cells (150,000/well); ([125I]I-BA)KuE (c = 0.2 nM) as radioligand; HBSS (1% BSA), 4°C, 1 h; natGa or natLu analogs; mean ± SD (n = 3)
T1 construct: PSMA-positive LNCAP cells (200265; Cell Lines Service GmbH) were cultivated; host or cells: LNCaP human prostate cancer cells

LNCaP tumor xenografts = assay: µPET imaging in mice bearing LNCaP tumor xenografts; conditions: PMPA 8mg/kg coinjection; static image 1 h p.i.
[1] = target: human serum albumin (HSA) (Homo sapiens, UniProt P02768); assay: HSA binding by HPLC on a column with immobilized human albumin; conditions: natGa- and natLu-labeled inhibitors; HPLC retention time with non-linear regression calibration on nine reference substances

Substance: [^natGa]PSMA I&T Galactose [^nat/68Ga-13]
IC50 (PSMA): 7.9 ± 3.9 nM
tissue uptake in kidneys and LNCaP tumor on coinjection of PMPA (LNCaP tumor xenografts): reduced the uptake almost completely

HSA [%] [1]: 7.6%
Substance: [^natGa]PSMA I&T Mannose [^nat/68Ga-14]

HSA [%] [1]: 25.1%
Substance: [^natLu]PSMA I&T Mannose [^nat/177Lu-14]

Substance: [^natGa]PSMA I&T Cellubiose [^nat/68Ga-15]
HSA [%] [1]: 6.9%

Substance: [^natLu]PSMA I&T Galactose [^nat/177Lu-13]
Binding to erythrocytes (human blood samples; simultaneous incubation with PMPA (100 µM)): 29.5%
Binding to erythrocytes (human blood samples; without PMPA): 26%

Read-outs that look alike come from different tables or passages of the source. Each block holds one substance with its values, some of them ahead of it.
